# Assay results published in PubChem BioAssay (Tox21).
# By UniProt entry, the sequences of proteins in these tests, tags left out.
# UniProt P08659, whole entry: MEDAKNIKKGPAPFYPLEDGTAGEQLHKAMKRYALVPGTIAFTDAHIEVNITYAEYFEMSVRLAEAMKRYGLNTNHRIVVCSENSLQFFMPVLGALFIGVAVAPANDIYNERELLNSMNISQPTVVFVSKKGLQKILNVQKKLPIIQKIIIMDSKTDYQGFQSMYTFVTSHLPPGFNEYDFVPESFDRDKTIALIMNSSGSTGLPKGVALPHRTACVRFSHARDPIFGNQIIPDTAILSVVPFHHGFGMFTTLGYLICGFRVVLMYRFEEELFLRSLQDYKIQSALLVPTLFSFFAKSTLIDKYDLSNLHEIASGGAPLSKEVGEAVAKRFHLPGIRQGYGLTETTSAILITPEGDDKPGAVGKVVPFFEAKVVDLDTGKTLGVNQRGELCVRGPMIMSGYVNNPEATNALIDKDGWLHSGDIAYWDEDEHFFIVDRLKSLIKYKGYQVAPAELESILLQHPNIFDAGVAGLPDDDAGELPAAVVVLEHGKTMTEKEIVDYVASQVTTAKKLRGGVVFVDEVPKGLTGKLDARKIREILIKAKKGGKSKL
# UniProt Q14994, whole entry: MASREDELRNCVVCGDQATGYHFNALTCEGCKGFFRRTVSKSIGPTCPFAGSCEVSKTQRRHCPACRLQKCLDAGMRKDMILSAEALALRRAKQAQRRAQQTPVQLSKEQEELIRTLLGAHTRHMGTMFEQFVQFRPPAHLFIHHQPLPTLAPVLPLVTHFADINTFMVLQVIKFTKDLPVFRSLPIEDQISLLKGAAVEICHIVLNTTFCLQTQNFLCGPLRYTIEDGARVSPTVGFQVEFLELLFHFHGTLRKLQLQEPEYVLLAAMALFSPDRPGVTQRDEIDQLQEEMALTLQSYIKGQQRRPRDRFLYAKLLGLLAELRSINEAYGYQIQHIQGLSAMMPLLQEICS
# Where “and” joins values, the source holds several entries; their conditions need not be identical. Equal entries are not always repeated. The entries are a selection whose mix differs from that of the whole data set. Records with an inconclusive call do not appear. Calls of active or inactive are those of the source. Unless noted, the call rests on the fitted dose curve; in most records, active means well fitted curve in the direction sought with a large enough effect in the repeat runs; inconclusive means weak or mixed curves; inactive means no such curve, though single readings can be large; an effect the other way counts as inactive or inconclusive.
# Tests used:
# [1] = qHTS assay to identify small molecule antagonists of the retinoid acid receptor (RAR) signaling pathway - cell viability counter screen (AID 1159551); settings: C3RL4 cells viability, ATP luminescence (CellTiter-Glo), 6 h; at 92.4 µM (top of the series); further: nearly all actives have a fitted effect of over 35% in size
# How it was run: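 Cells (C3RL4) are plated, incubated overnight, dosed with compound in DMSO, then given retinol at 1 uM final. After 6 h at 37 C, CellTiter-Glo is added and luminescence read following 30 min at room temperature.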
# [2] = qHTS assay to identify small molecule antagonists of the retinoic acid receptor (RAR) signaling pathway (AID 1159552; further: nearly all actives have a fitted effect of over 50% in size); settings: C3RL4 RARE luciferase reporter, retinol-stimulated, 6 h; at 92.4 µM (top of the series)
# Description: (§1) National Center for Advancing Translational Sciences [NCATS]
# (§2) NIH Chemical Genomics Center [NCGC]
# (§3) U.S. Environmental Protection Agency [EPA]
# (§4) National Institutes of Environmental Health Sciences [NIEHS]
# (§5) National Toxicology Program [NTP]
# (§6) U.S. Food and Drug Administration [FDA]
# All-trans Retinoic acid (atRA) is the potent natural metabolite of retinol and plays an important role in normal embryonic development and maintenance of cellular phenotype in adult animals. atRA is the activating ligand for the retinoic acid receptors (RARs) which form heterodimers with retinoid X receptors (RXRs) on the retinoic acid response element (RARE). Through activation of the RAR/RXRs nuclear receptors, atRA regulates the transcription of a large number of protein-coding genes and regulatory RNAs. Intracellular levels of atRA are controlled by the retinol signaling pathway (RSP) that regulates the biosynthesis and catabolism of atRA to maintain physiological levels. Chemicals that interfere with the RSP can cause abnormal intracellular levels of atRA and therefore are potential developmental toxicants. To assess compounds for the potential adverse effect on embryonic development through interfering with retinol signaling, a cell-based RARE luciferase reporter gene assay was used. C3RL4 cell line (OARSA/CFSAN/FDA, Laurel, MD) was used to screen Tox21 10K compound library for identifying inhibitors of the RSP.
# Tox21 Assay Protocol Summary:
# C3RL4 cells were seeded at 1,000/well in 4 uL of assay medium into white solid 1,536-well tissue culture plates (Greiner Bio-One North America Inc. Monroe, NC) using a Multidrop Combi (Thermo Scientific, Waltham, MA) dispenser. After incubation at 37 C and 5% CO2 for an overnight, 23 nL of compounds dissolved in DMSO, positive control or DMSO only were transferred by a Pintool station (Kalypsys, San Diego, CA). […] Luminescence was quantified on a ViewLux plate reader (PerkinElmer, Waltham, MA) after 30 min incubation at room temperature.
# [3] = qHTS assay to identify small molecule agonists of the retinoic acid receptor (RAR) signaling pathway (AID 1159553); settings: C3RL4 RARE luciferase reporter, agonist, 6 h; at 73.3 µM (top of the series)
# How it was run: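 Seed C3RL4 reporter cells at 1,000 per well and incubate overnight at 37 C. Add compounds in DMSO, incubate 6 hr. Add luciferase reagent, wait 30 min at room temperature, read luminescence.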
# [4] = target: Luciferin 4-monooxygenase (Photinus pyralis) (UniProt P08659); experiment: qHTS assay to identify small molecule inhibitors of firefly luciferase (AID 1224835); further: nearly all actives have a fitted effect of over 25% in size; settings: purified P. pyralis luciferase, luminescence inhibition
# How it was run: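 Biochemical qHTS: compounds run as interplate titrations against purified firefly enzyme, with D-luciferin and ATP each at its KM concentration. Light output recorded by CCD imaging.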
# [5] = target: Nuclear receptor subfamily 1 group I member 3 (Homo sapiens) (UniProt Q14994); experiment: qHTS assay to identify small molecule antagonists of the constitutive androstane receptor (CAR) signaling pathway (AID 1224838); settings: HepG2-CYP2B6-hCAR luciferase, CITCO-stimulated, 24 h; at 92.4 µM (top of the series);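 further: HepG2 cells stably expressing hCAR with CYP2B6 luciferase reporter stimulated by CITCO; nearly all actives have a fitted effect of over 40% in size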
# [6] = target: Nuclear receptor subfamily 1 group I member 3 (Homo sapiens) (UniProt Q14994); experiment: qHTS assay to identify small molecule agonists of the constitutive androstane receptor (CAR) signaling pathway (AID 1224839); further: nearly all actives have a fitted effect of over 15% in size; further: potency means the concentration at half of the fitted maximal effect;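 on activation: HepG2 cells stably carrying human CAR and a CYP2B6 luciferase reporter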
# [7] = qHTS assay to identify small molecule antagonists of the estrogen related receptor (ERR) signaling pathway from Tox21 library - cell viability counter screen (AID 1224834); settings: ERR reporter cells viability, CellTiter-Fluor, 17.5 h; at 92.4 µM (top of the series); further: nearly all actives have a fitted effect of over 30% in size
# How it was run: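 ERR cells, 2,000/well; 6 h settle at 37 C/5% CO2; pin-tool compound transfer in DMSO; 17.5 h at 37 C; CellTiter-Fluor, 30 min; fluorescence intensity.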
# [8] = qHTS assay to identify small molecule agonists of the constitutive androstane receptor (CAR) signaling pathway - cell viability counter screen (AID 1224836); settings: HepG2-CYP2B6-hCAR viability, CellTiter-Fluor, 23 h, PK11195 added to every well; at 92.4 µM (top of the series); further: nearly all actives have a fitted effect of over 45% in size
# How it was run: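 HepG2 cells stably carrying hCAR and a CYP2B6-2.2kb reporter were plated 4 h, then given compounds at 15 concentrations plus PK11195 (final 0.75 uM). After 23 h at 37 C, viability was read by CellTiter-Fluor fluorescence.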
# [9] = qHTS assay to identify small molecule antagonists of the constitutive androstane receptor (CAR) signaling pathway - cell viability counter screen (AID 1224837); settings: HepG2-CYP2B6-hCAR viability, CellTiter-Fluor, 23 h, co-treated with 50 nM CITCO; at 92.4 µM (top of the series); further: nearly all actives have a fitted effect of over 45% in size
# How it was run: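 Viability was measured with CellTiter-Fluor in a HepG2 line carrying stably transfected hCAR and a CYP2B6-2.2kb construct. Cells were exposed for 23 hr at 37 C to 15 compound concentrations with 50 nM CITCO as agonist.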
# [10] = qHTS assay to identify small molecule antagonists of the estrogen related receptor signaling pathway with the pleiotropic PPARgamma coactivator (PGC) from Tox21 10K library - cell viability counter screen (AID 1224840; active means well fitted cell-killing curve with a large enough effect in the repeat runs, not every such curve was filed as active; further: nearly all actives have a fitted effect of over 40% in size); settings: PGC/ERR reporter cells viability, CellTiter-Fluor, 17.5 h; at 92.4 µM (top of the series)
# Description: as §1, §2, §3, §4, §5, §6
# Estrogen related receptors (ERRs), the first orphan nuclear receptors discovered, play an important role in the control of cellular energy metabolism. ERRs are required for high-energy production in response to the environmental challenges. The pleiotropic PPARgamma coactivator (PGC) is a major partner of ERR and a key regulator in energy homeostasis. Together they have been implicated in the etiology of metabolic disorders such as Type 2 diabetes and metabolic syndrome. ERR-alpha was also identified as an adverse marker for breast cancer progression; ERR-alpha-positive tumors have a poor prognosis. To screen and to identify environmental compounds that perturb the ERR and PGC/ERR signaling pathways could provide valuable information for potential therapeutic or preventive measures in the treatment of metabolic disease. […]
# The PGC/ERR cells were dispensed at 2,000 cells/5 ul/well in 1536-well white plates using a Multidrop dispenser. […] After 30-minute incubation at 37 C/5% CO2, the fluorescence intensity in the plates was measured using a ViewLux plate reader.
# On the % scale 0 is the no-effect control and ±100 the full control effect.
SMILES,"activity change, negative = cytotoxicity [1]","activity, negative = inhibition [2]",activation [3],"activity change, negative = inhibition ([4]; at 115 µM (top of the series))","activity, negative = inhibition [5]",Potency [6],"viability change, negative = cytotoxic [7]","viability change, negative = cytotoxic [8]","activity change, negative = cytotoxicity [9]","viability change, negative = cytotoxic [10]","activity change, negative = inhibition ([4]; at 52.9 µM (top of the series))"
CCC(=O)N(c1ccccc1)C1(COC)CCN(CCc2cccs2)CC1,inactive: -2.05%,inactive: -9.17%,inactive: -3.98%,inactive: 0.89%,inactive: 13.3%,active: 30.6 µM,,,,,
O=[N+]([O-])C(Cl)(Cl)Cl,inactive: -0.298%,inactive: 14.6%,inactive: -1%,inactive: 2.78%,inactive: 0.0531%,inactive,inactive: 2.05%,inactive: -0.0017%,inactive: 0.594%,inactive: 2.94%,
CCC(=O)N(c1ccccc1)C1(COC)CCN(CCn2nnn(CC)c2=O)CC1,inactive: -1.65%,inactive: 10.5%,inactive: -0.195%,inactive: 2.32%,inactive: 9.11%,inactive,inactive: 1.83%,inactive: -3.66%,inactive: 3.4%,inactive: 4.41%,
CN(CCCl)CCCl,,,inactive: -5.92% and inactive: -13.9%,inactive: 0.739%,,inactive,,,,,inactive: -0.251%
